Earlier results in article PMC8548585, “Triazolopyrimidine herbicides are potent inhibitors of Aspergillus fumigatus acetohydroxyacid synthase and potential antifungal drug leads” (Scientific Reports, 2021).

System: ScAHAS
Conditions: read-out: KM for pyruvate; cited from earlier work

## CC(=O)C(=O)O
  Km: 3.6 mM
